Reference: US11691963B2, “6-heteroaryloxy benzimidazoles and azabenzimidazoles as JAK2 inhibitors” (Ajax Therapeutics, Inc., priority 2020, dated 2023)

Amino acid sequences for entries named in this document (tags omitted). Residues count along the entry.
UniProt O60674, 849-1124 Y1007F/Y1008F limits assumed: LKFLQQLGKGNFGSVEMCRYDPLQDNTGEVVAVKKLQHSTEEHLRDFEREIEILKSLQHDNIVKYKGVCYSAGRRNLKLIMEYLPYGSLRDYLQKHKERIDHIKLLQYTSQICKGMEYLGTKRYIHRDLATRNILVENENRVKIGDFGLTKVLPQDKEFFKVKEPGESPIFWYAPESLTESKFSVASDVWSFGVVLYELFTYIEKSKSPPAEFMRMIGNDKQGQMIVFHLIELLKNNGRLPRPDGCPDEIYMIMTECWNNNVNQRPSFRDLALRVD

Molecular target: JAK2 (JH1domain-catalytic, Y1007F,Y1008F) kinase (Homo sapiens (Human), UniProt O60674, Y1007F/Y1008F)
Assay: JAK2 Binding Assay (JAK2 JH1 Domain Binding Assay)
Settings: read-out: JAK2 Kd, qPCR readout
Procedure: JAK2 (JH1domain-catalytic, Y1007F,Y1008F) kinase was expressed as N-terminal fusion to the DNA binding domain of NFkB in transiently transfected HEK293 cells and subsequently tagged with DNA for qPCR detection. Streptavidin-coated magnetic beads were treated with biotinylated small molecule ligands for 30 minutes at room temperature to generate affinity resins for kinase assays. The liganded beads were blocked with excess biotin and washed with blocking buffer (SeaBlock (Pierce), 1% BSA, 0.05% Tween 20, 1 mmol/L DTT) to remove unbound ligand and to reduce nonspecific phage binding. Binding reactions were assembled by combining kinases, liganded affinity beads, and test compounds in 1× binding buffer (1×PBS, 0.05% Tween 20, 0.1% BSA, 1 mmol/L DTT). Test compound was prepared as 111× stocks in 100% DMSO and directly diluted into the assay wells. All reactions were performed in polypropylene 384-well plates in a final volume of 0.02 mL. The assay plates were incubated at room temperature with shaking for 1 hour and the affinity beads were washed with wash buffer (1×PBS, 0.05% Tween 20). The beads were then re-suspended in elution buffer (1×PBS, 0.05% Tween 20, 0.5 μmol/L non-biotinylated affinity ligand) and incubated at room temperature with shaking for 30 minutes. The kinase concentration in the eluate was measured by qPCR.

In the case of “(R)—N-(4-((2-((5-(tert-butyl)-1-(tetrahydrofuran-3-yl)-1H-pyrazol-3-yl)amino)-1-methyl-1H-imidazo[4,5-b]pyridin-6-0)oxy)pyridin-2-yl)-3-methoxyazetidine-1-carboxamide”, the pKd was > 8.00.

pKd: −log10 of the molar value. This is a selection: effects in other tests are not listed, and their absence says nothing.
